In this assay the test system is CD8+ CTL clone SKH-13. It is filed as cell-based, human. The following applies: 20 units/ml.

The values below come from US20070154464A1, “Methods for screening for agents capable of modulating t lymphocyte function in response to a herpes simplex virus-infected cell” (priority 2003, published 2007).

For the substance “IL-2: human recombinant interleukin (IL)-2 (Chiron)”, under “up to 48 h”, the “Lytic ability of CTL added to mock-infected fibroblasts” value is on record as “maintained the lytic ability”. Under “E:T 3”, the “Recovery of killing function of CTL added to HSV-infected fibroblasts” value is “did not recover killing function”.
